Antibody variant affinities, Ab-14 heavy chain, assay 1

Antigen: PDVDLGDISGINAS, a 14-residue peptide of the SARS-CoV-2 spike HR2 region.

Each scFv is VH, a (GGGGS)3 linker, VL, as in the parent Ab-14, and differs from it in the CDRs of the heavy chain only.
VH: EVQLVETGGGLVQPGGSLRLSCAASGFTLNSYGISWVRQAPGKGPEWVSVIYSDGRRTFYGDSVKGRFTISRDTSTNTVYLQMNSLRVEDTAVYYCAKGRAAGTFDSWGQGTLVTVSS
VL: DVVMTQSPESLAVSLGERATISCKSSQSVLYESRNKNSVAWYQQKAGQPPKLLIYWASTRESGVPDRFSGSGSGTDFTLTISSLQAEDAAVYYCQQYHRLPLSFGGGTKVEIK

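Variants in AAYL49 differ from the parent at up to three CDR positions; double and triple changes were sampled at random. The scFvs were displayed on barcoded MATa yeast, the peptide on MATalpha yeast. Mating (16 h, 30 °C) was followed by selection of diploids and sequencing of their barcodes. Each replicate has its own calibration line, from reference interactions of the BCL2 family. The assay was run in three technical replicates.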

Positions count from residue 1 of the parent VH; S35D puts D in place of S. Each Kd is an estimate from the mating assay, the geometric mean of the replicates in which the pair was seen; lower is stronger. An entry "nd" has no value in the source: the pair was not observed among the diploids in any replicate. This suggests poor binding but is not conclusive.

| changes | apparent Kd | replicates with signal | control signals |
|---|---|---|---|
| S35D Y52V R57A | 55 µM | 3 of 3 | 6 of 9 |
| D54T R56D | nd | 0 of 3 | 0 of 9 |
| Y32G I51V A101F | nd | 0 of 3 | 0 of 9 |
| G61R D106Q S107D | 510 nM | 1 of 3 | 0 of 9 |
| F27K D54R R100G | nd | 0 of 3 | 1 of 9 |
| I51W Y52V V64A | 250 µM | 1 of 3 | 3 of 9 |
| V50K A101I | 33 µM | 3 of 3 | 3 of 9 |
| S31D G55I F105L | 14 µM | 2 of 3 | 3 of 9 |
| G55D R100S T104A | 8.5 µM | 2 of 3 | 2 of 9 |
| F27E Y52C G55I | 44 µM | 3 of 3 | 3 of 9 |
| L29H F59E | 690 nM | 3 of 3 | 0 of 9 |
| T58P S63H | 3.5 µM | 1 of 3 | 1 of 9 |
| F27W T58H S107L | 9.9 µM | 1 of 3 | 2 of 9 |
| Y32E R57G S63I | nd | 0 of 3 | 0 of 9 |
| S31F G61K S107L | 34 nM | 1 of 3 | 0 of 9 |
| Y52T R100I | 8.2 µM | 3 of 3 | 2 of 9 |
| L29S I34P R56Y | 52 µM | 1 of 3 | 6 of 9 |
| S31T Y52N A101G | 720 nM | 1 of 3 | 1 of 9 |
| N30H F59K S63H | 170 µM | 1 of 3 | 3 of 9 |
| S53C F59W A101G | nd | 0 of 3 | 1 of 9 |
| T28E R56F F105K | nd | 0 of 3 | 0 of 9 |
| L29K N30E R100M | nd | 0 of 3 | 1 of 9 |
| L29D R57E D106A | nd | 0 of 3 | 3 of 9 |
| Y32N I34T G55Y | 180 nM | 1 of 3 | 0 of 9 |
| T28K N30H T104E | 9.2 µM | 2 of 3 | 4 of 9 |
| G26A I34N S35N | nd | 0 of 3 | 0 of 9 |
| V64F T104C S107W | nd | 0 of 3 | 0 of 9 |
| Y32V F59M Y60T | 9.2 µM | 2 of 3 | 4 of 9 |
| N30T S53T S107W | 170 nM | 1 of 3 | 0 of 9 |
| L29D I34L T58Y | nd | 0 of 3 | 0 of 9 |
| L29V N30E S63W | 700 nM | 3 of 3 | 2 of 9 |
| S53R D54W R100I | 13 µM | 1 of 3 | 1 of 9 |
| T28Y G103W S107T | 69 nM | 3 of 3 | 1 of 9 |
| I51D D62K T104G | nd | 0 of 3 | 0 of 9 |
| G55H Y60R S63G | nd | 0 of 3 | 1 of 9 |
| T58A V64K A102I | 770 nM | 2 of 3 | 0 of 9 |
| R57S R100N | 150 nM | 2 of 3 | 0 of 9 |
| T58I V64E F105A | nd | 0 of 3 | 0 of 9 |
| G33A G103R F105Q | nd | 0 of 3 | 1 of 9 |
| S35H G61W F105V | nd | 0 of 3 | 0 of 9 |
| G26D Y32I S53V | nd | 0 of 3 | 0 of 9 |
| I51S K65R | nd | 0 of 3 | 1 of 9 |
| G26Q R56K A101W | nd | 0 of 3 | 0 of 9 |
| T28K D54C G103M | nd | 0 of 3 | 3 of 9 |
| G61R R100M T104D | 1.9 µM | 1 of 3 | 2 of 9 |
| T28H S35D T104W | nd | 0 of 3 | 0 of 9 |
| F59I V64S K65Q | nd | 0 of 3 | 1 of 9 |
| S35K S63P V64C | 71 µM | 1 of 3 | 0 of 9 |
| F27D D54H A102D | nd | 0 of 3 | 1 of 9 |
| R56K F105S | 16 nM | 3 of 3 | 2 of 9 |
| G26Y T28K Y52W | nd | 0 of 3 | 1 of 9 |
| L29I R57H F105D | 280 nM | 2 of 3 | 0 of 9 |
| G33T R57P G61Y | 8.4 µM | 1 of 3 | 5 of 9 |
| I51G Y60S S107D | 51 µM | 1 of 3 | 4 of 9 |
| A101E A102E G103Y | nd | 0 of 3 | 2 of 9 |
| G26T S35T T58F | nd | 0 of 3 | 0 of 9 |
| T28N S53R A102F | nd | 0 of 3 | 2 of 9 |
| S31T R57L G99A | nd | 0 of 3 | 1 of 9 |

The closing 10 entries, repeated:

changes,apparent Kd,replicates with signal,control signals
F27D D54H A102D,nd,0 of 3,1 of 9
R56K F105S,16 nM,3 of 3,2 of 9
G26Y T28K Y52W,nd,0 of 3,1 of 9
L29I R57H F105D,280 nM,2 of 3,0 of 9
G33T R57P G61Y,8.4 µM,1 of 3,5 of 9
I51G Y60S S107D,51 µM,1 of 3,4 of 9
A101E A102E G103Y,nd,0 of 3,2 of 9
G26T S35T T58F,nd,0 of 3,0 of 9
T28N S53R A102F,nd,0 of 3,2 of 9
S31T R57L G99A,nd,0 of 3,1 of 9

Empty control strains, which show no peptide, gave a signal in 15% of pairings with library AAYL49; the median was 11 µM and 95% of these signals were weaker than 680 nM. No background was subtracted. For each scFv, signals with the empty controls are counted beside the result.

The measurements come from Engelhart et al. 2022 (doi:10.1038/s41597-022-01779-4) through the FLAb antibody collection.